# Reference: patent publication US8591865B2, “Renal function analysis method and apparatus” (Pharmacophotonics, Inc., priority 2008, dated 2013)
# Columns and labels:
# dogs = assay: Gentamycin-induced acute kidney injury in dogs: serum creatinine, BUN, USG, UPC; assay type: in vivo, dog; conditions: all five study dogs
# From the text: Five spayed female young adult hound-type mogrel dogs were confirmed to be in good health based on physical examination, complete blood count, blood chemistry analysis, urinalysis, urine protein-to-creatine ratio (UPC) and aerobic urine culture.
# [1] = GFR by iohexol plasma clearance in gentamycin-induced AKI dogs; assay type: in vivo, dog; conditions: Day 0, 150 mg/kg iohexol IV, individual dogs (repeat results for two dogs)
# Method: EDTA-anticoagulated blood was collected at 0, 5, 10, 20, 30, 60, 180, 240 and 300 minutes post-injection, centrifuged within 3 hours, and stored at -20° C.
GFR: Iohexol Plasma Clearance [1] [mL/min/kg],Compound,increases over baseline serum creatinine (dogs)
–,gentamycin,Greater than 25%
4.49,CC(=O)N(CC(O)CO)c1c(I)c(C(=O)NCC(O)CO)c(I)c(C(=O)NCC(O)CO)c1I (centres unmarked) [iohexol],–
